# Assay results taken from patent publication US20150284305A1, “FLUORINE-CONTAINING COMPOUND AND METHOD FOR PRODUCING SAME” (Asahi Glass Company, Limited, priority 2012, published 2015).
# Assay: Solubility test: 20 mg sample in 10 g solvent, evaluated visually
# Type: physicochemical
# Conditions: 20 mg in 10 g solvent (0.2 mass %), room temperature / 25° C., visual
# Experimental: For evaluating the applicability thereof to a wet process, the compound to be analyzed was tested in a dissolution test in various solvents. As a comparative case, anthracene was tested for the dissolution test.
# Concretely, 20 mg of the sample was weighed, and the solubility thereof (0.2 mass %) in 10 g of a solvent at room temperature was visually evaluated.
# In Table 1, A means soluble, and B means insoluble. The standard of “soluble” was set as the case where the compound dissolved in an amount of 0.2% by mass or more at a solvent temperature of 25° C.
substance,measurement,setting,value
Perfluorohexylated Anthracene [Example 1-1],Solubility Test Cyclohexane,cyclohexane,A (A means soluble)
same,Solubility Test Hexane,hexane,A (A means soluble)
